Literature values, collected in PMC7867784 (Translational Lung Cancer Research, 2021).

Test system: ALK-rearranged NSCLC
Conditions: 300 mg BID; cited from earlier work

## CCc1cc2c(cc1N1CCC(N3CCOCC3)CC1)C(C)(C)c1[nH]c3cc(C#N)ccc3c1C2=O [alectinib]
  median PFS: > 27 months
  response rate: 93.5%
